From publication PMC8172577, “A Novel Antimicrobial Peptides From Pine Needles of Pinus densiflora Sieb. et Zucc. Against Foodborne Bacteria” (Frontiers in Microbiology, 2021)
In brackets after ≈: the same amount, converted by molar mass.

Columns and labels:
[1] = system: Escherichia coli ATCC25922; format: cell-based; conditions: minimal concentration of peptide to inhibit microbial growth; 5 × 10^5 CFU/ml, 18 h at 37°C, OD 600 nm
Protocol: (§1) For antimicrobial assays, Escherichia coli ATCC 25922, Pseudomonas aeruginosa ATCC 15692, Staphylococcus aureus ATCC 25923, and Staphylococcus epidermidis ATCC 12228 were obtained from the American Type Culture Collection (Manassas, VA, United States). Salmonella typhimurium KCTC 1926 and Listeria monocytogenes KCTC 3710 were obtained from the Korean Collection for Type Cultures (Jeollabuk-do, Korea).
(§2) Minimum inhibitory concentrations (MICs) of purified PN peptides were assayed according to the Clinical and Laboratory Standards Institute recommendations ([Wiegand et al., 2008]). Briefly, bacterial suspension (5 × 10^5 CFU/ml), obtained by diluting an exponential growth phase culture, was then added into the 96-well plates containing 2-fold serial dilutions of each fraction, the plates were incubated for 18 h at 37°C. MICs of PN peptides were measured in optical density at 600 nm using Versamax™ ELISA Microplate Reader (Molecular Devices, Sunnyvale, CA, United States). PBS, culture media, and melittin were used as growth and growth inhibition controls. The MIC was defined as the lowest concentration of PN peptide that was able to inhibit microbial growth.

[2] = system: Staphylococcus aureus ATCC25923; format: cell-based; conditions: minimal concentration of peptide to inhibit microbial growth; 5 × 10^5 CFU/ml, 18 h at 37°C, OD 600 nm
Protocol: as §1, §2

CC[C@H](C)[C@H](NC(=O)CN)C(=O)NCC(=O)N[C@@H](C)C(=O)N[C@H](C(=O)N[C@@H](CC(C)C)C(=O)N[C@@H](CCCCN)C(=O)N[C@H](C(=O)N[C@@H](CC(C)C)C(=O)N[C@H](C(=O)N[C@H](C(=O)NCC(=O)N[C@@H](CC(C)C)C(=O)N1CCC[C@H]1C(=O)N[C@@H](C)C(=O)N[C@@H](CC(C)C)C(=O)N[C@H](C(=O)N[C@@H](CO)C(=O)N[C@@H](Cc1c[nH]c2ccccc12)C(=O)N[C@H](C(=O)N[C@@H](CCCCN)C(=O)N[C@@H](CCCNC(=N)N)C(=O)N[C@@H](CCCCN)C(=O)N[C@@H](CCCNC(=N)N)C(=O)N[C@@H](CCC(N)=O)C(=O)N[C@@H](CCC(N)=O)C(N)=O)[C@@H](C)CC)[C@@H](C)CC)[C@@H](C)O)[C@@H](C)O)C(C)C)C(C)C [Melittin, reference compound]
MIC [1]: 2 µg/mL (≈ 0.703 µM) | MIC [2]: 4 µg/mL (≈ 1.41 µM)
